From ChEMBL document CHEMBL1126886, “Synthesis of 5-methyl-5-deaza nonclassical antifolates as inhibitors of dihydrofolate reductases and as potential antipneumocystis, antitoxoplasma, and antitumor agents” (J Med Chem, 1993)

Target: T1, Bifunctional dihydrofolate reductase-thymidylate synthase (Toxoplasma gondii, UniProt Q07422)
T1 sequence (Q07422 whole entry): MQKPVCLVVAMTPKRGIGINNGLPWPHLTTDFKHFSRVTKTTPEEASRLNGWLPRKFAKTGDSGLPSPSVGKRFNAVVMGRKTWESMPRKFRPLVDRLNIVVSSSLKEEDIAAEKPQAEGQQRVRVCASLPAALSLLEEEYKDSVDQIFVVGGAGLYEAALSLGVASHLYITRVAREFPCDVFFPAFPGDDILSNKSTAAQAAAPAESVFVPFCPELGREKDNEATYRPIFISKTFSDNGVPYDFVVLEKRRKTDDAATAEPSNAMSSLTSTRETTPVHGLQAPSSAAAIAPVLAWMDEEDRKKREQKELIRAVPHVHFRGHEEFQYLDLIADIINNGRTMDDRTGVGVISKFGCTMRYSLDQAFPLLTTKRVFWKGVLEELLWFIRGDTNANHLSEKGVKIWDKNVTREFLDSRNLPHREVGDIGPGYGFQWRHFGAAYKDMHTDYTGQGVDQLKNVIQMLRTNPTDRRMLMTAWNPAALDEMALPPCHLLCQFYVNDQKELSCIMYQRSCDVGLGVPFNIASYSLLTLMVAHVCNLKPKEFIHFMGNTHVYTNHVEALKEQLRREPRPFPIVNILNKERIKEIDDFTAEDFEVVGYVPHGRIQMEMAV
Test: Inhibition of Toxoplasma gondii dihydrofolate reductase

COc1cc(N(C)Cc2cnc3nc(N)nc(N)c3c2C)cc(OC)c1OC
IC50: 0.58 nM
